Drawing on article PMC9378703, “Structures of UBA6 explain its dual specificity for ubiquitin and FAT10” (Nature Communications, 2022), this text covers activation of ubiquitin by UBA6 (ubiquitylation assay, E1 charged with IRdye 800CW-ubiquitin, non-reducing SDS-PAGE), relative to wild-type UBA6, activation of ubiquitin by UBA6 (E1 charged with IRdye 800CW-ubiquitin, non-reducing SDS-PAGE), residual activity relative to wild-type UBA6 and ubiquitylation activity of UBA6 (E1 charged with IRdye 800CW-ubiquitin, non-reducing SDS-PAGE), residual activity relative to wild-type UBA6 for one substance.

Protein sequences, listed by entry. Tags and fused reporters are not part of them. Residues count along the entry.
UniProt A0AVT1, 35-1052 F316A: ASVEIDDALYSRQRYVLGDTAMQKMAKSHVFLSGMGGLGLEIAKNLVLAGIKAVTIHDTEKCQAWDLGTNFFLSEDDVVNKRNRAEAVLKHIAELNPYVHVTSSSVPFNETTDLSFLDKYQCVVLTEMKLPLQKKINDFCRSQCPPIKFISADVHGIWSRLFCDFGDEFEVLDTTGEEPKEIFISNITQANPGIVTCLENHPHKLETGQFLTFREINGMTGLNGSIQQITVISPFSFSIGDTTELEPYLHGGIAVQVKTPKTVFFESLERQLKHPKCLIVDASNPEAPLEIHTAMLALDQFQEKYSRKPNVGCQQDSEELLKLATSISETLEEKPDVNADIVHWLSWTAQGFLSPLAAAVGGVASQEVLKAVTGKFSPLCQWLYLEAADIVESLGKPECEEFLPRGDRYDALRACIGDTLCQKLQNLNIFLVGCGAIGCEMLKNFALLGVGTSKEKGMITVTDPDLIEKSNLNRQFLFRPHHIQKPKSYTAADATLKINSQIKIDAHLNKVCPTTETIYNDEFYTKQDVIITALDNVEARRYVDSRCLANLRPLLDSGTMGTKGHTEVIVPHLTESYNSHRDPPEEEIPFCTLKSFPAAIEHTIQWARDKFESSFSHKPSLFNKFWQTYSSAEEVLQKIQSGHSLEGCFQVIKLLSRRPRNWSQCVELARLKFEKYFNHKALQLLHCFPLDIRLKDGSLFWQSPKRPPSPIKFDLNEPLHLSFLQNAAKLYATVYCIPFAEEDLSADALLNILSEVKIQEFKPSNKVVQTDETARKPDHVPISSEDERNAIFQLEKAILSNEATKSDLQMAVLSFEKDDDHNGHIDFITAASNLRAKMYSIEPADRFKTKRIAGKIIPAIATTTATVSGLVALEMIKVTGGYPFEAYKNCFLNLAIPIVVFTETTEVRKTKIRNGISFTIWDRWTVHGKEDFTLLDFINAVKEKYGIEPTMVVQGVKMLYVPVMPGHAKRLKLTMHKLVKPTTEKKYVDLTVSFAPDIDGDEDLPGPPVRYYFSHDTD
UniProt A0AVT1, 35-1052 V934A: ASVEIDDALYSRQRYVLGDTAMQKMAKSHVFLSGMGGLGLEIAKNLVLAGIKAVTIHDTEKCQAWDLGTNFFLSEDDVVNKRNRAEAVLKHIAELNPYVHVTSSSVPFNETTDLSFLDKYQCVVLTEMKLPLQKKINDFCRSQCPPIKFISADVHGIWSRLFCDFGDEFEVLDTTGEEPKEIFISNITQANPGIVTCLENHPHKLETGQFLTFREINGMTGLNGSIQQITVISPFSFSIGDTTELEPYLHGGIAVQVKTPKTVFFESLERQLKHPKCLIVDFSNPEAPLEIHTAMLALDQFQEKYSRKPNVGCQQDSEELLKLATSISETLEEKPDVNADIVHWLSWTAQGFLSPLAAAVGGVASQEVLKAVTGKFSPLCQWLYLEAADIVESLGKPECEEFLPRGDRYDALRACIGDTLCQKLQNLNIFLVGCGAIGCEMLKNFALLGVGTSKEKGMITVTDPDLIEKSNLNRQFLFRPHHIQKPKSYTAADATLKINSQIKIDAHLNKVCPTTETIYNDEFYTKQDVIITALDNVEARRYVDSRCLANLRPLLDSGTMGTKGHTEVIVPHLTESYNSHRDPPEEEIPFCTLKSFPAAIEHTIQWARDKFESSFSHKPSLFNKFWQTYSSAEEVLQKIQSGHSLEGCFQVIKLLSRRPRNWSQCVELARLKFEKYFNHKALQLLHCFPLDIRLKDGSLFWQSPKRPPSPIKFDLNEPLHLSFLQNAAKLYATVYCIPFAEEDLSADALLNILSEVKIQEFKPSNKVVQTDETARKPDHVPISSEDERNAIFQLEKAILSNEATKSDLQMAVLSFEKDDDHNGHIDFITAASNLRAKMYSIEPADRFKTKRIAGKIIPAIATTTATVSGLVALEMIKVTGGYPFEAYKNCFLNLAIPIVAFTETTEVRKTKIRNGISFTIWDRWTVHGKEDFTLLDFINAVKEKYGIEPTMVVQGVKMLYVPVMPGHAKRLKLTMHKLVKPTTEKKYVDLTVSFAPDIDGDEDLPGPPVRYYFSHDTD
UniProt A0AVT1, 35-1052 E601Q: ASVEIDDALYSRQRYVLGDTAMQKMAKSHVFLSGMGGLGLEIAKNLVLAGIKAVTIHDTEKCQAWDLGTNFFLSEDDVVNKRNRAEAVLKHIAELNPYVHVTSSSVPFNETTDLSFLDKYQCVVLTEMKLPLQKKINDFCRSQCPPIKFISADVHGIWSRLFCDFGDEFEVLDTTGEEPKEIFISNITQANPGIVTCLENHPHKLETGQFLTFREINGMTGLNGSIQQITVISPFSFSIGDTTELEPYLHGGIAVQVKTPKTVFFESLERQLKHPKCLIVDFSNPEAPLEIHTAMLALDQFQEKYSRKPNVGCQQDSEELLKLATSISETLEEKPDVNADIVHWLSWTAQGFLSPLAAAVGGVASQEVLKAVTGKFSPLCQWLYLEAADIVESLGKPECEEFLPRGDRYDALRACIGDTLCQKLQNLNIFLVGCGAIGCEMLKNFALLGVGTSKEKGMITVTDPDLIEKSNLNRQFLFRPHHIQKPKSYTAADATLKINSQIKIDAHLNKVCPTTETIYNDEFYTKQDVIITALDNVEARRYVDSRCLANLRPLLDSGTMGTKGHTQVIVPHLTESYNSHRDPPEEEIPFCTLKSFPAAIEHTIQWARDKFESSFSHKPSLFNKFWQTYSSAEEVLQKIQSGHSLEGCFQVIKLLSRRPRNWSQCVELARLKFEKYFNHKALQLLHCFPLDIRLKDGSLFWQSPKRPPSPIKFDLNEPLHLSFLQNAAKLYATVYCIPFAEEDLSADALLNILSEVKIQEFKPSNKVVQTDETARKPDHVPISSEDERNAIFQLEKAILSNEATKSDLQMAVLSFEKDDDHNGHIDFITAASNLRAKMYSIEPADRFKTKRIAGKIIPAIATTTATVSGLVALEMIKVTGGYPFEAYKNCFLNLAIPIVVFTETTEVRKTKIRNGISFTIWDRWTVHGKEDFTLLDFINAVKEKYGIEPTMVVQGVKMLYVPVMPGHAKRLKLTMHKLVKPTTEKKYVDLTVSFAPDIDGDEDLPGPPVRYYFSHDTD
UniProt A0AVT1, 35-1052 D616A: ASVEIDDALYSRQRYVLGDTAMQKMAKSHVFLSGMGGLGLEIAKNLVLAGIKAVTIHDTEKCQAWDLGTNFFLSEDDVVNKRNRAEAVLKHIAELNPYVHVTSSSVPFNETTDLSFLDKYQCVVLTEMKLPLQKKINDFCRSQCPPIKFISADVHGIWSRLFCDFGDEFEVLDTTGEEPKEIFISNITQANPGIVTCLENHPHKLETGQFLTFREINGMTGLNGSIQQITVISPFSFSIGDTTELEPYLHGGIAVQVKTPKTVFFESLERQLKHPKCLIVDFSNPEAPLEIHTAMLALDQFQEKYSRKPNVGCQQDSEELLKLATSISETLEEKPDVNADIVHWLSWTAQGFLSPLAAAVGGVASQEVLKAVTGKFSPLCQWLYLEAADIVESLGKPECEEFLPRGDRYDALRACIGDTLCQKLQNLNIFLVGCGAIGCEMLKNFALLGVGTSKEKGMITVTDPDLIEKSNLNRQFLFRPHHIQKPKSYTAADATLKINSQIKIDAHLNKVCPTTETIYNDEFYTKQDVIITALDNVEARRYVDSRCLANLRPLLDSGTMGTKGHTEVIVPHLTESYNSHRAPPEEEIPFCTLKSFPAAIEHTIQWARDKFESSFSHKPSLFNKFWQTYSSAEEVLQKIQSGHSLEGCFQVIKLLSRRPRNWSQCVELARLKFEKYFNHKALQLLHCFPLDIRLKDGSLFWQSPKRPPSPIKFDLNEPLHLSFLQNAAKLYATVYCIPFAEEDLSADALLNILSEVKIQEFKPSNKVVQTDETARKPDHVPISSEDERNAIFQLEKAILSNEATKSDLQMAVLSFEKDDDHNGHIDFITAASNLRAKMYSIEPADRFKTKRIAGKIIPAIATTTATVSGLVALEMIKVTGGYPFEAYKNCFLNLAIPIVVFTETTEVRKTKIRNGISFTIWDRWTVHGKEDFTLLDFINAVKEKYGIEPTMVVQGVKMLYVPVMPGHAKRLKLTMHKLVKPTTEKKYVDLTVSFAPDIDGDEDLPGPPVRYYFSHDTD

Test [1] concerns the target human UBA6 (residues 35-1052) F316A variant (human) (UniProt A0AVT1).
Test [2] has as its target human UBA6 (residues 35-1052) V934A variant (human) (UniProt A0AVT1).
Test [3] concerns the target human UBA6 (residues 35-1052) E601Q variant (human) (UniProt A0AVT1).
Test [4] has as its target human UBA6 (residues 35-1052) D616A variant (human) (UniProt A0AVT1).

“ubiquitin (from UniProt P0CG47 1-76) (natural protein)”: the activation of ubiquitin by UBA6 (ubiquitylation assay, E1 charged with IRdye 800CW-ubiquitin, non-reducing SDS-PAGE), relative to wild-type UBA6 was determined as 33% in test [1] and 12% in test [2]. This substance also came in with an activation of ubiquitin by UBA6 (E1 charged with IRdye 800CW-ubiquitin, non-reducing SDS-PAGE), residual activity relative to wild-type UBA6 in test [3] of 22%. Moreover, the ubiquitylation activity of UBA6 (E1 charged with IRdye 800CW-ubiquitin, non-reducing SDS-PAGE), residual activity relative to wild-type UBA6 in test [4] was found to be 22%.
